# Apparent affinities of Ab-95 variants for a coronavirus HR2 peptide

Binding partner: SARS-CoV-2 spike HR2 peptide, sequence PDVDLGDISGINAS.

The variants keep the heavy chain, the linker and the frameworks of Ab-95 (scFv order VH, a 15-residue (Gly4Ser)3 linker, VL).
VH: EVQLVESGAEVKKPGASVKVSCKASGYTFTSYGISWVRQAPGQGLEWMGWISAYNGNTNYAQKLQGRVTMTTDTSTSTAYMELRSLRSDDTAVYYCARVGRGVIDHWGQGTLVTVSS
VL: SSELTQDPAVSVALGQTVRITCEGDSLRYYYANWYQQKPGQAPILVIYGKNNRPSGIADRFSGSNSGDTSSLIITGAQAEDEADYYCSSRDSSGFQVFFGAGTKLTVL

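Phage display of a naive human antibody library on the peptide gave the parent. Variants in AAYL52 differ from the parent at up to three CDR positions; double and triple changes were sampled at random. Affinity was read by AlphaSeq, a pooled yeast mating assay with surface-displayed partners. After mating in shaken culture at 30 °C for 16 h, diploids were selected and their barcode pairs sequenced. Read counts were normalised to the haploid input and turned into Kd by a linear fit to BCL2-family pairs of known affinity, for each replicate. Mating was done three times.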

Changes read parent residue, position, new residue, counted from the first residue of the VL shown. This list gathers variants with a substitution at E23 (VL, numbered from residue 1). Kd is apparent (estimated from mating counts) and averaged on the log scale over replicates with a signal. Smaller is tighter. "nd" means that the variant was in the library but no mating with the target was seen in any replicate; the authors take this as a sign of poor binding, and no number exists. In this assay the parent's reference entry averaged 200 nM; its copy inside this library read 180 nM.

changes	apparent Kd	seen in	empty controls
E23G+G49R+R53A	3.6 µM	1/3	1/9
E23F+N51T+S92N	2.8 µM	2/3	4/9
E23H+P54C+F98E	nd	0/3	0/9
E23K+D25L+Y30K	110 nM	3/3	2/9
E23P+G24V+A32R	nd	0/3	1/9
E23M+N33A+S92T	1.6 µM	3/3	4/9
E23C+R28W+F98Y	210 nM	3/3	2/9
E23H+D25L+S55D	260 nM	3/3	3/9
E23N+S88R+D91F	470 nM	3/3	6/9
E23A+S26C+R28A	1.0 µM	3/3	2/9
E23Y+L27W+R90D	12 µM	1/3	3/9
E23C+L27N+G94V	nd	0/3	0/9
E23L+S26A	1.9 µM	3/3	1/9
E23N+Y29A+S89W	150 nM	3/3	0/9
E23D+G94R+Q96A	7.8 µM	3/3	4/9
E23V+S26C+S93M	260 µM	1/3	1/9
E23Y+S88Y+S92K	nd	0/3	1/9
E23R+S89L+Q96W	2.2 µM	3/3	1/9
E23F+Y29T+S88D	2.7 µM	3/3	3/9
E23G+S92A+F95N	35 nM	3/3	3/9
E23Y+N33L+F95A	24 µM	2/3	0/9
E23G+R28F+G94M	26 µM	2/3	1/9
E23K+D25W+G49D	520 nM	3/3	3/9
E23V+S88Y+D91Y	99 nM	3/3	3/9
E23K+S26N+R53S	750 nM	1/3	0/9
E23K+Y29A+Y31L	58 nM	3/3	0/9
E23P+K50H+V97D	2.9 µM	1/3	2/9
E23K+G94D+V97Y	370 nM	3/3	3/9
E23W+S26A+L27I	3.1 µM	1/3	0/9
E23T+R28W+D91M	530 nM	1/3	1/9
E23R+D25K+N51Q	760 nM	3/3	3/9
E23D+S26E+V97G	93 nM	3/3	5/9
E23T+R28D+F95C	600 nM	3/3	4/9
E23H+R53P+S92M	12 µM	1/3	3/9
E23I+P54A+F98Y	74 nM	3/3	4/9
E23Q+L27D+S55R	420 nM	1/3	3/9
E23C+Y29F+S92A	240 nM	3/3	1/9
E23R+Y31K+V97F	1.7 µM	3/3	3/9
E23L+N52V+F95I	nd	0/3	1/9
E23G+R28G+S88L	570 nM	3/3	3/9
E23T+R53V+S89A	230 nM	3/3	1/9
E23G+S88P+V97P	nd	0/3	3/9
E23G+Y30A+S92K	8.4 nM	3/3	2/9
E23T+S92Q+Q96C	12 µM	2/3	4/9
E23P+Y31P+R90D	2.6 µM	1/3	0/9
E23A+S26M	1.8 µM	3/3	3/9
E23W+A32V+D91A	3.6 µM	3/3	4/9
E23A+A32T+P54W	790 nM	3/3	6/9
E23L+N52E+D91M	nd	0/3	0/9
E23P+Y30D+S55H	nd	0/3	0/9
E23Y+S93N+F98C	1.1 µM	3/3	3/9
E23D+S26H+R53F	6.8 µM	3/3	2/9
E23I+A32L+S93R	11 µM	2/3	2/9
E23G+N52S+F95H	400 nM	3/3	0/9
E23R+D25H+N52G	530 nM	3/3	0/9
E23I+A32Q+D91C	nd	0/3	3/9
E23I+L27Q	660 nM	2/3	0/9
E23R+S93Y+F95T	120 nM	3/3	2/9
E23C+G24H+F98A	660 nM	3/3	2/9
E23W+K50F+S89V	2.5 µM	3/3	7/9
E23F+Y30T+K50T	22 nM	3/3	2/9
E23W+K50R+Q96R	11 µM	3/3	5/9
E23I+N33R+S88I	12 µM	1/3	2/9
E23A+R90F+D91S	nd	0/3	0/9
E23T+V97I+F98L	110 nM	3/3	1/9
E23I+Y29S+Q96E	120 nM	3/3	1/9
E23D+R53C+Q96I	nd	0/3	0/9
E23R+F95P+V97G	260 nM	3/3	3/9
E23T+G24H+G49T	24 µM	2/3	4/9
E23G+S92C+Q96D	2.6 µM	2/3	0/9
E23Q+R28Y+K50Q	30 nM	3/3	2/9
E23H+G94F+F95D	370 nM	3/3	2/9
E23A+D91W+G94C	1.0 µM	3/3	5/9
E23K+R90N+S93E	510 nM	3/3	2/9
E23P+D25P+G94P	nd	0/3	2/9
E23N+S55M+G94I	nd	0/3	2/9

Top 8 of the variants detected in all replicates, tightest first:

changes	apparent Kd	seen in	empty controls
E23G+Y30A+S92K	8.4 nM	3/3	2/9
E23F+Y30T+K50T	22 nM	3/3	2/9
E23Q+R28Y+K50Q	30 nM	3/3	2/9
E23G+S92A+F95N	35 nM	3/3	3/9
E23K+Y29A+Y31L	58 nM	3/3	0/9
E23I+P54A+F98Y	74 nM	3/3	4/9
E23D+S26E+V97G	93 nM	3/3	5/9
E23V+S88Y+D91Y	99 nM	3/3	3/9

Three control strains display no target. For library AAYL52, 28% of the pairings with them gave a signal, with a median of 8.2 µM and one signal in twenty below 800 nM, so weak values seen in few replicates may be background. For each scFv, signals with the empty controls are counted beside the result.

From the AlphaSeq antibody data of Engelhart et al. 2022 (doi:10.1038/s41597-022-01779-4), copy in the FLAb collection.